Key:
[1] = target: recombinant human Meningioma Expressed Antigen 5 (MGEA5), also referred to as O-GlcNAcase (OGA) (Homo sapiens, UniProt O60502); experiment: OGA biochemical assay (inhibition of FM-GlcNAc hydrolysis, fluorescence); conditions: FM-GlcNAc substrate
From the text: The assay is based on the inhibition of the hydrolysis of fluorescein mono-β-D-N-Acetyl-Glucosamine (FM-GlcNAc) (Mariappa et al. 2015, Biochem J 470:255) by the recombinant human Meningioma Expressed Antigen 5 (MGEA5), also referred to as O-GlcNAcase (OGA). The hydrolysis FM-GlcNAc (Marker Gene technologies, cat #M1485) results in the formation of β-D-N-glucosamineacetate and fluorescein. The fluorescence of the latter can be measured at excitation wavelength 485 nm and emission wavelength 538 nm. An increase in enzyme activity results in an increase in fluorescence signal. Full length OGA enzyme was purchased at OriGene (cat #TP322411). The enzyme was stored in 25 mM Tris.HCl, pH 7.3, 100 mM glycine, 10% glycerol at −20° C. Thiamet G and GlcNAcStatin were tested as reference compounds (Yuzwa et al. 2008 Nature Chemical Biology 4:483; Yuzwa et al. 2012 Nature Chemical Biology 8:393). The assay was performed in 200 mM Citrate/phosphate buffer supplemented with 0.005% Tween-20. […]
50 nl of a compound dissolved in DMSO was dispensed on Black Proxiplate™ 384 Plus Assay plates (Perkin Elmer, #6008269) and 3 μl fl-OGA enzyme mix added subsequently. […] Fluorescence was quantified in the Thermo Scientific Fluoroskan Ascent or the PerkinElmer EnVision with excitation wavelength 485 nm and emission wavelength 538 nm. […]

Sequences of proteins named here, by UniProt entry; tags and fusion partners are left off.
UniProt O60502, whole entry: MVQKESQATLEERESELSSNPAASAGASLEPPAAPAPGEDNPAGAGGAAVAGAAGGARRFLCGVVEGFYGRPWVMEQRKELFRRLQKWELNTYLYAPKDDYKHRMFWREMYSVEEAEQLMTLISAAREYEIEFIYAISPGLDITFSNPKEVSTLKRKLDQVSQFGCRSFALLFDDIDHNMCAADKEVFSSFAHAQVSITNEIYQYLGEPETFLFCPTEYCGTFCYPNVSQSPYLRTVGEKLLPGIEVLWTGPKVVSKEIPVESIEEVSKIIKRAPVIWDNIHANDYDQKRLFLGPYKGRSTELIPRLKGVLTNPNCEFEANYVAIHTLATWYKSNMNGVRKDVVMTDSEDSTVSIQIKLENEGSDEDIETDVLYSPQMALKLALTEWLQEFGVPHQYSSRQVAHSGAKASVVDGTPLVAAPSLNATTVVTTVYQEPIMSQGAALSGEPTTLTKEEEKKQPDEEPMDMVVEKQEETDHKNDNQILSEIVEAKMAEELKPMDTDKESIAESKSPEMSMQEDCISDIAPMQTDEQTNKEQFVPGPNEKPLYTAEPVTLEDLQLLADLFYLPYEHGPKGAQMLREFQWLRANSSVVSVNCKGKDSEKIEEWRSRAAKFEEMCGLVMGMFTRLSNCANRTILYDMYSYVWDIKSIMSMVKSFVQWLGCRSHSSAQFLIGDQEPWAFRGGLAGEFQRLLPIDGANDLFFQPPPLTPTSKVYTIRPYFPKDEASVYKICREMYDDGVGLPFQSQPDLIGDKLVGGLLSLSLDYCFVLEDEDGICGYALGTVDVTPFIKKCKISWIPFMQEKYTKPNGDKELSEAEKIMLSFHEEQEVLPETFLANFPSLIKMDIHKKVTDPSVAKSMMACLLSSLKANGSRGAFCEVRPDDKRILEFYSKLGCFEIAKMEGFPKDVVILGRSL

OGA = OGA (Homo sapiens, UniProt O60502); experiment: OGA cellular assay (ICC detection of O-GlcNAcylated proteins in HEK293 cells inducible for P301L mutant human Tau)
Protocol: HEK293 cells inducible for P301L mutant human Tau (isoform 2N4R) were established at Janssen. Thiamet-G was used for both plate validation (high control) and as reference compound (reference EC50 assay validation). OGA inhibition is evaluated through the immunocytochemical (ICC) detection of O-GlcNAcylated proteins by the use of a monoclonal antibody (CTD110.6; Cell Signaling, #9875) detecting O-GlcNAcylated residues as previously described (Dorfmueller et al. 2010 Chemistry & biology, 17:1250). Inhibition of OGA will result in an increase of O-GlcNAcylated protein levels resulting in an increased signal in the experiment. Cell nuclei are stained with Hoechst to give a cell culture quality control and a rough estimate of immediate compounds toxicity, if any. ICC pictures are imaged with a Perkin Elmer Opera Phenix plate microscope and quantified with the provided software Perkin Elmer Harmony 4.1.
Cells were propagated in DMEM high Glucose (Sigma, #D5796) following standard procedures. 2 days before the cell assay cells are split, counted and seeded in Poly-D-Lysine (PDL) coated 96-wells (Greiner, #655946) plate at a cell density of 12,000 cells per cm^2 (4,000 cells per well) in 100 μl of Assay Medium (Low Glucose medium is used to reduce basal levels of GlcNAcylation) (Park et al. 2014 The Journal of biological chemistry 289:13519). […]

Structure (SMILES): COc1cc(C[C@H]2CCN(C(C)c3ccc4c(n3)OCCO4)C2)cc(C)n1 (stereo partly shown)
- Enzymatic hOGA; pIC50 ([1]; 6 h at room temperature): 6.9
- Enzymatic Emax (%) ([1]; maximal effect): 100%
- Cellular hOGA; pEC50 (OGA; 6 hours incubation, ICC O-GlcNAcylation): 6.1
- Cellular Emax (%) (OGA; maximum defined by Thiamet G at 200 uM): 51%
